Values of other authors as cited in US20220143026A1, “TRIPLE COMBINATION TO TREAT B-CELL MALIGNANCIES” (TG Therapeutics, Inc., priority 2020, published 2022).

Columns and labels:
EGFR = EGFR (Homo sapiens, UniProt P00533); settings: ratio of IC50s; cited from earlier work
whole kinome = settings: compared with ibrutinib; cited from earlier work

SMILES: CC#CC(=O)N1CC[C@@H](n2cc(-c3ccc(Oc4c(F)cccc4F)cc3)c3c(N)n[nH]c(=O)c32)C1 [TG-1701, (R)-4-amino-1-(1-(but-2-ynoyl)pyrrolidin-3-yl)-3-(4-(2,6-difluorophenoxy)phenyl)-1,6-dihydro-7H-pyrrolo[2,3-d]pyridazin-7-one]
- fold less active on EGFR compared to BTK (EGFR): 90 fold
- selectivity for BTK in an in vitro whole kinome screening (whole kinome): improved selectivity for BTK
